{"sequences": {"note": "By UniProt entry, the sequences of proteins in these tests, tags left out.", "UniProt P01116, whole entry G12D": "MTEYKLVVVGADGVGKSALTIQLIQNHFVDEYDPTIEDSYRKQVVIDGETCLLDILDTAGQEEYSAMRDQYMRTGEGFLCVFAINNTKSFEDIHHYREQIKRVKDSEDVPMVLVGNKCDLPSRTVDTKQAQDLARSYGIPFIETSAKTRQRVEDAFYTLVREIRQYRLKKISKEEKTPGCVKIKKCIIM", "UniProt P01116, whole entry": "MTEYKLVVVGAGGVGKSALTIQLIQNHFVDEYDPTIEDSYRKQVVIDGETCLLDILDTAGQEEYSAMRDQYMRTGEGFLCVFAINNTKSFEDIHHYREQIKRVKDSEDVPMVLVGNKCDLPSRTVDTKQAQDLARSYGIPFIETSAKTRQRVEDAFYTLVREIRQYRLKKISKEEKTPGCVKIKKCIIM"}, "source": "ChEMBL document CHEMBL4325929", "about": "“Discovery of Tetrahydropyridopyrimidines as Irreversible Covalent Inhibitors of KRAS-G12C with In Vivo Activity” (ACS Med Chem Lett, 2018)", "type_in_all_cases": "cell-based", "key": {"GTPase KRas [1]": {"biological_target": "GTPase KRas (Homo sapiens, UniProt P01116, G12D)", "experiment": "Inhibition of KRAS G12D mutant in human AGS cells assessed as reduction in ERK phosphorylation measured after 3 hrs by Western blot analysis"}, "GTPase KRas [2]": {"biological_target": "T1, GTPase KRas (Homo sapiens, UniProt P01116)", "experiment": "Inhibition of wild type KRAS in human RKO cells assessed as reduction in ERK phosphorylation measured after 3 hrs by Western blot analysis"}, "GTPase KRas [3]": {"biological_target": "T1, GTPase KRas", "experiment": "Inhibition of wild type KRAS in human SNUC5 cells assessed as reduction in ERK phosphorylation measured after 3 hrs by Western blot analysis"}, "GTPase KRas [4]": {"biological_target": "T2, GTPase KRas (Homo sapiens, UniProt P01116, G12C)", "experiment": "Inhibition of KRAS G12C mutant in human NCI-H358 cells assessed as reduction in ERK phosphorylation measured after 3 hrs by Western blot analysis"}, "GTPase KRas [5]": {"biological_target": "T2, GTPase KRas", "experiment": "Inhibition of KRAS G12C mutant in human MIAPaCa2 cells assessed as reduction in ERK phosphorylation measured after 3 hrs by Western blot analysis"}}}
{"compound": "C=CC(=O)N1CCN(c2nc(OC[C@@H]3CCCN3C)nc3c2CCN(c2cc(O)cc4ccccc24)C3)CC1", "values": [{"measurement": "IC50", "setting": "GTPase KRas [1]", "value": "> 16", "unit": "µM"}, {"measurement": "IC50", "setting": "GTPase KRas [2]", "value": "> 16", "unit": "µM"}, {"measurement": "IC50", "setting": "GTPase KRas [3]", "value": "> 16", "unit": "µM"}, {"measurement": "IC50", "setting": "GTPase KRas [4]", "value": 0.07, "unit": "µM"}, {"measurement": "IC50", "setting": "GTPase KRas [5]", "value": 0.048, "unit": "µM"}]}
